The results in this text go back to ChEMBL document CHEMBL1949595, “Fluorinated ΔF508-CFTR correctors and potentiators for PET imaging” (Bioorg Med Chem Lett, 2012).

This experiment in a line: Potentiation activity at human CFTR delta F508 mutant-mediated iodine flux expressed in rat FRT cells coexpressing fluorescent protein YFP-H148Q/1152L by fluorescence assay. It counts as cell-based.

Usually EC50 stands for the concentration that produces a half-maximal response. Regarding `O=c1c(-c2ccc(O)cc2)coc2cc(O)cc(O)c12` [GENISTEIN], the EC50 turned out to be 7 µM.
